According to PMC8890769:

Molecular target: RBX1 (human (endogenous in U2OS)) (UniProt P62877)
Test: proximity ligation

## ELOF1-TY1 (from UniProt P60002 1-83) (natural protein)
  cells with an increased PLA signal at sites of local DNA damage (% of the cells): 50
